In publication PMC10626537, “Pharmacokinetic and pharmacodynamic studies of nicotine in rat brain: a simultaneous investigation of nicotine metabolites and the release of neurotransmitters in vivo” (Frontiers in Chemistry, 2023):

Test: Online brain microdialysis UHPLC-HRMS/MS pharmacokinetics of Nic and its main metabolites in rat NAc after single Nic injection
Assay type: in vivo
Parameters: AUC0–360 min: unit not given here
Details: for AUC0–360 min: rat NAc dialysate, Nic 2 mg kg^-1 ip single injection, two-compartmental model; for C max / CL/F / MRT / t 1/2z / t max: rat NAc
Protocol: To inhibit the main Nic metabolic enzyme CYP2B in the brain, rats received intraperitoneal injections of proadifen (50 mg kg^−1·day^−1, 4 d) ([Song et al., 2012]). Control animals were pretreated with saline using the same protocol. All the rats were sacrificed by cardiac perfusion after microdialysis sampling. The brain tissues were separated and divided into four parts (cerebrum, cerebellum, diencephalon, and brainstem). The CYP2B activity in different rat brain regions was determined following the instructions of the GENMED CYP2B1 activity fluorescence quantitative detection kit (GENMED SCIENTIFICS INC. U.S.A, GMS18019.1).
The mass spectrometer was operated in positive ionization mode. […] The normalized collision energy was set at 10%.

[1] = Nic 2 mg kg^-1 ip, Prodifine (proadifen) pretreated
[2] = Nic 2 mg kg^-1 ip, saline-pretreated

Substance: (R, S)- nornicotine [NNic]
- AUC0–360 min (Prodifine (proadifen 50 mg kg^-1 d^-1 ip, 4 days) pretreated): 5.9
- AUC0–360 min (saline-pretreated): 37.4
- C max [1]: 23.5 ng/mL
- CL/F [1]: 7.0 mL/min
- MRT [1]: 2.99 h
- t 1/2z [1]: 2.782 h
- t max [1]: 2 h
- C max [2]: 160.4 ng/mL
- CL/F [2]: 2.0 mL/min
- MRT [2]: 2.998 h
- t 1/2z [2]: 1.932 h
- t max [2]: 2.83 h
- decrease of C max (level) of Nic metabolite after CYP2B1 inhibition compared with control rats (rat brain, Nic 2 mg kg^-1 ip, proadifen-pretreated vs saline control): 85.3%
